Data taken from publication PMC11528232.

Chains of the proteins cited; added tags and fusions are not shown. Residues count along the entry.
UniProt P02745, 23-245: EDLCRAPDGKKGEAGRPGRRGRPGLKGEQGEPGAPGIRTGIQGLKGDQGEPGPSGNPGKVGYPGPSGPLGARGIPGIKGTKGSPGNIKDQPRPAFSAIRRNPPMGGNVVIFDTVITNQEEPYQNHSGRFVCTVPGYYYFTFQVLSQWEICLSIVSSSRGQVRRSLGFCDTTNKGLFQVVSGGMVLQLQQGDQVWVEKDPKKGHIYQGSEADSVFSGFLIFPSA
human C1q protein, UniProt P02746, 28-253: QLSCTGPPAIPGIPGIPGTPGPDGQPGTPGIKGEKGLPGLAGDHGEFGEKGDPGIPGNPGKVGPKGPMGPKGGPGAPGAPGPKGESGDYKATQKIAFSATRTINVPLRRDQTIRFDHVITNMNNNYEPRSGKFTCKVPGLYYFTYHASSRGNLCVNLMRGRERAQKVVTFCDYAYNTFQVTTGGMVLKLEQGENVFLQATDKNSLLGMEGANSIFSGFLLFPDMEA
human C1q protein, UniProt P02747, 29-245: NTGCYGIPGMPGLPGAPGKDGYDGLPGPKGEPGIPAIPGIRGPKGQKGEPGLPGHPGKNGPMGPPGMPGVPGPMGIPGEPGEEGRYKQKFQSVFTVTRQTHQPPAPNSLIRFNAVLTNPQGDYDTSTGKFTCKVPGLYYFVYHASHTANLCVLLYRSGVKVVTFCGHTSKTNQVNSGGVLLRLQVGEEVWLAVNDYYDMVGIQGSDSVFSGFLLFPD

Assays:
CM311 (human) = assay: SPR
CMG901 (human) = assay: SPR

Kd (CM311 (human)): 47.9 nM
Kd (CMG901 (human)): 116 nM
Substance: human C1q protein (from UniProt P02745 23-245; P02746 28-253; P02747 29-245) (complex)
